2 substances from patent US20160033500A1 can be followed below.

For experiment [1], the target named is human serum albumin (human) (UniProt P02768). In words: coefficient b of the two-exponential dissociation fit (Equation I), HSA sensor chip, 10 µM peptide.
Experiment [2] has the same target. Kind of experiment: coefficient b of the two-exponential dissociation fit (Equation I), HSA sensor chip, 2 µM peptide.

Regarding “Amyloid β40 peptide (peptide; other documents disagree on this pair)”, in experiment [1], the b value stood at 0.841.

As for “amyloid β42 peptide (peptide; other documents disagree on this pair)”, in experiment [2], the b value was 0.09.
